# Source: PubChem BioAssay AID493235 (Broad Institute, 2011)
# Only a part is listed here, and it is no random draw. Results filed as inconclusive are left out. Calls of active or inactive are those of the source.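 Rule for the calls: active = fitted dose curve passes 500% activation at or below the top valid tested dose; inconclusive = no clear call, values can overlap the other calls; inactive = the rest, opposite-direction activity included.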
# Assay: HIF pathway activators in HRE-luciferase reporter, dose response, cell-based, U2OS, luminescence, dry powder, set 7 (AID 493235)
# Conditions: at 38 µM (top of the series)
# How it was run: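 Test system – human U2OS osteosarcoma cells stably expressing 3×HRE-driven luciferase reporter · Quantity – 6,000 cells/well · Medium – DMEM without phenol red, with 10% fetal bovine serum · Compound – 8 concentrations, 3-fold steps · Times – cells grown 24 h before dosing, compound exposure 24 h at 37 °C · Detection – luminescence with Steady-Glo luciferase reagent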
smiles,measurement,value
O=c1[nH]c2ccccc2n1C1CCN(Cc2ccc(O)c3ncccc23)CC1,activation,inactive: 79.7%
